Measurements reported in PubChem BioAssay AID463195 (Sanford-Burnham Center for Chemical Genomics, 2010).
The entries are a selection whose mix differs from that of the whole data set. Activity calls are given as the source filed them.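 How the source made its calls: active means inhibition of 40% or more at the single tested concentration; inactive means the rest.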

test: growth inhibitors of isogenic TIM10 control yeast, primary screen, counter-screen for tim10-1 yeast inhibitor project, luminescence, uHTS (AID 463195);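 further: wild-type TIM10 isogenic control strain grown at permissive 25 °C; 0% = DMSO yeast wells and 100% = minimal medium wells without yeast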; settings: S. cerevisiae TIM10 strain growth, BacTiter-Glo luminescence, 24 h; at 10 µM; stronger effect = higher value

| Structure (SMILES) | inhibition |
| --- | --- |
| CCC(=O)N(c1ccccc1)C1(COC)CCN(CCc2cccs2)CC1 | inactive: 2.38% |
| CCC(=O)N(c1ccccc1)C1(COC)CCN(CCn2nnn(CC)c2=O)CC1 | inactive: 1.91% |
